# Measured values as given in PubChem BioAssay (Tox21).
# Protein sequences, listed by entry. Tags and fused reporters are not part of them.
# UniProt P19793, whole entry: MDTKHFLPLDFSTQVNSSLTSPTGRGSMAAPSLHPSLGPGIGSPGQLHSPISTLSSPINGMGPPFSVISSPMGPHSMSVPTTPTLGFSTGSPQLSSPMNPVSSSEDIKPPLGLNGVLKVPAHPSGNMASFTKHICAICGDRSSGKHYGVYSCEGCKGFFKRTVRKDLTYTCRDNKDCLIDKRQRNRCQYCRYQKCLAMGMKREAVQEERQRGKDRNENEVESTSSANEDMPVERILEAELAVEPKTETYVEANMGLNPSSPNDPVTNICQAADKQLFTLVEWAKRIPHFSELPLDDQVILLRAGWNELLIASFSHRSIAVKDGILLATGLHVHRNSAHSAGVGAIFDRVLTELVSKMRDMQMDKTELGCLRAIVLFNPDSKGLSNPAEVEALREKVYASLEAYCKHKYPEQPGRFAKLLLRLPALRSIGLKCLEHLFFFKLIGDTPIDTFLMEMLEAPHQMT
# Several values for one entry are separate records, joined by “and”; a condition that tells them apart may be missing. Identical values can stand only once. Only a part is listed here, and it is no random draw. Inconclusive results are not listed. Activity calls are given as the source filed them. Unless noted, the call rests on the fitted dose curve; in most records, active means well fitted curve in the direction sought with a large enough effect in the repeat runs; inconclusive means weak or mixed curves; inactive means no such curve, though single readings can be large; an effect the other way counts as inactive or inconclusive.
# Biological target: Nuclear receptor ROR-gamma (Homo sapiens) (UniProt P51449)
# Experiment: qHTS assay to identify small molecule antagonists of the retinoid-related orphan receptor gamma (ROR-gamma) signaling pathway (AID 1159521; further: nearly all actives have a fitted effect of over 50% in size; further: potency means the concentration at half of the fitted maximal effect)
# Details: Tet-on RORgamma CHO cells, RORE-luciferase, 16 h; series mostly up to 92.4 µM
row,Structure (SMILES),Potency
1,O=[N+]([O-])c1ccccc1[N+](=O)[O-],active: 31.4 µM
2,ClCCOP(OCCCl)OCCCl,inactive
3,CCOP(=O)(Cl)Cl,inactive
4,ClCCNCCCl,inactive

# Tested on: not listed separately
# Experiment: qHTS assay to identify small molecule agonists of the AP-1 signaling pathway - cell viability counter screen (AID 1159525; calls by dose curve; further: nearly all actives have a fitted effect of over 55% in size)
# Details: ME-180 AP-1-bla cells viability, ATP luminescence, 5 h; at 76.8 µM (top of the series) unless noted
# Text: (§1) National Center for Advancing Translational Sciences [NCATS]
# (§2) NIH Chemical Genomics Center [NCGC]
# (§3) U.S. Environmental Protection Agency [EPA]
# (§4) National Institutes of Environmental Health Sciences [NIEHS]
# (§5) National Toxicology Program [NTP]
# (§6) U.S. Food and Drug Administration [FDA]
# Activator protein-1 (AP-1), a transcription factor, plays an important role in tumor genesis by regulating genes involved in cell proliferation, differentiation, apoptosis, and angiogenesis. AP-1 activity is induced by a complex network of signaling pathways that involves extracellular signals, such as growth factors. The AP-1 protein complex formed from c-Fos and c-Jun binding to the AP-1 response element results in transcriptional activation of genes containing such elements within their promoter.
# Low molecular weight molecules have been discovered and developed to modulate various components of these signaling pathways, for example, MAP kinase inhibitors. However, many points of pathway modulation remain untested due to the lack of chemical probes making this signaling locus of general interest.
# Using a beta-lactamase reporter-gene under control of the AP-1 response element, a cell-based assay [CellSensor(TM) AP-1-bla ME-180 developed by Invitrogen Corp.] was used to measure EGF-induced signaling. The Tox21 10K library compounds were measured for their ability to positively modulate the action of EC50 EGF on reporter gene activity. Compounds were screened in a 15-pt titration series in 1536-well format. The cytotoxicity of the Tox21 compound library against this cell line was tested in parallel by measuring the intra cellular ATP content in the same wells.
# (§7) Tox21 Assay Protocol Summary:
# 2500 cells/5uL in Opti-MEM medium containing 0.5% dialyzed FBS, 0.1 mM NEAA, 1 mM sodium pyruvate and 10 mM HEPES was dispensed into 1536-well black wall/clear bottom plates using a Multidrop dispenser and cells were cultured at 37 degrees Celsius overnight. Next day 23 nL of compounds dissolved in DMSO, positive controls or DMSO were delivered to each well using a pin tool. The plates were incubated at 37 degrees Celsius for 5 hours. 1 uL of LiveBLAzerTM B/G FRET substrate (Solution A+B+C+D) was added to each well using a Flying Reagent Dispenser. After incubated at room temperature for 2.5 hours the plates were measured on an EnVision plate reader at Excitation 405nm, Emission1=460nm and Emission 2=530nm. The %Activity was determined from the ratio of 460nm/530nm.
# After the plates were read for Beta-Lactamase assay on Envision; 3 ul Cell Titer Glo (Promega) was added to measure the cytotoxicity and the plates were then incubated at RT in dark for 30 min. The luminescence was read on ViewLux (Perkin Elmer, Shelton, CT) using 6 sec exposure. ViewLux data was expressed as relative luminescence units.
# For primary data analysis, raw plate reads for each titration point were first normalized relative to […] EGF control (100%) and DMSO only wells (basal, 0%).
# For primary data analysis for viability assay, raw plate reads for each titration point were first normalized Tetra n-octyl ammonium bromide control (-100%) and DMSO (control, 100%).
row,Structure (SMILES),"viability change, negative = cytotoxic"
1,CCOP(=S)(Cl)OCC,inactive: -7.37%
2,O=[N+]([O-])c1ccccc1[N+](=O)[O-],inactive: 10.3% and inactive: 11.2%
3,CCC(=O)N(c1ccccc1)C1CCNCC1,inactive: -10.9% [at 35.3 µM]
4,CCOC(=O)N1CCC(=O)CC1,inactive: 1.61% [at 35.3 µM]
5,ClCCOP(OCCCl)OCCCl,inactive: 2.83% and inactive: 1.38%
6,CCOP(=O)(Cl)Cl,inactive: 2.08% and inactive: -4.75%
7,ClCCNCCCl,inactive: -3.76%
8,CC(C)OP(OC(C)C)OC(C)C,inactive: 1.72%

# Tested on: not listed separately
# Experiment: qHTS assay to identify small molecule agonists of the AP-1 signaling pathway (AID 1159526; calls by dose curve; further: on the % scale 0 is the no-effect control and ±100 the full control effect)
# Details: ME-180 (cervical carcinoma) AP-1-bla reporter, beta-lactamase FRET ratio, 5 h; at 76.8 µM (top of the series) unless noted
row,Structure (SMILES),activation
1,O=[N+]([O-])c1ccccc1[N+](=O)[O-],inactive: -0.27% and inactive: -0.385%
2,CCC(=O)N(c1ccccc1)C1CCNCC1,inactive: 0.846% [at 35.3 µM]
3,CCOC(=O)N1CCC(=O)CC1,inactive: -3.14% [at 35.3 µM]
4,ClCCOP(OCCCl)OCCCl,inactive: 6.58% and inactive: 0.744%
5,CCOP(=O)(Cl)Cl,inactive: -0.0931% and inactive: -0.236%
6,ClCCNCCCl,inactive: 1.28%

# Biological target: Retinoic acid receptor RXR-alpha (Homo sapiens) (UniProt P19793)
# Experiment: qHTS assay to identify small molecule agonists of the RXR signaling pathway (AID 1159527; calls by dose curve; further: on the % scale 0 is the no-effect control and ±100 the full control effect; nearly all actives have a fitted effect of over 35% in size)
# Details: HEK293T RXRa-UAS-bla, beta-lactamase ratio, 16 h; at 76.8 µM (top of the series) unless noted
# In short: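 GeneBLAzer RXR-alpha-UAS-bla HEK 293T cells in medium with 2% charcoal-stripped FBS, pre-incubated 5 hr at 37 C, then exposed to compounds 16 hr. Beta-lactamase reporter read by FRET substrate, 2 hr room temperature, 460/530 nm emission.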
row,Structure (SMILES),activation
1,CCC(=O)N(c1ccccc1)C1CCNCC1,inactive: 7.03% [at 35.3 µM]
2,CCOC(=O)N1CCC(=O)CC1,inactive: 4.89% [at 35.3 µM]
3,ClCCOP(OCCCl)OCCCl,inactive: 15.4% and inactive: -4.47%
4,CCOP(=O)(Cl)Cl,inactive: -10.2% and inactive: -5.05%
5,ClCCNCCCl,inactive: -1.98%
6,CC(C)OP(OC(C)C)OC(C)C,inactive: 5.57%

# Tested on: not listed separately
# Experiment: qHTS assay to identify small molecule agonists of the RXR signaling pathway - cell viability counter screen (AID 1159529); further: on the % scale 0 is the no-effect control and ±100 the full control effect; nearly all actives have a fitted effect of over 50% in size
# Details: RXR-alpha-bla HEK293T viability, CellTiter-Glo, 16 h; at 76.8 µM (top of the series) unless noted
# Text: as §1, §2, §3, §4, §5, §6
# The Retinoid X receptor (RXR), a nuclear hormone receptor expressed in liver, spleen, placenta, epidermis, central nervous system. These receptors are able to form homo and heterodimers with other nuclear receptors and due to this heterodimerizing ability, RXR functions as master regulators producing diverse physiological effects. Three subtypes of RXR exist; alpha, beta and gamma. Retinoid X receptor alpha (RXR-alpha) has potential roles in metabolic signaling pathways, skin alopecia, dermal cysts, cardiac development, insulin sensitization etc. Therefore screening environmental chemicals on RXR-alpha signaling can be used for the studies focused on such therapeutic applications. For quantification of RXR-alpha ligands signaling, GeneBLAzer RXR alpha-UAS-bla HEK 293T (Life Technologies, Carlsbad, CA) cells containing a beta-lactamase reporter-gene under control of Retinoid X receptor-alpha response element were used to screen Tox21 10K library. The cytotoxicity of the Tox21 compound library against the RXR-alpha HEK 293T cell line was tested in parallel by measuring cell viability using CellTiter-Glo assay (Promega Corporation, Madison, WI) in the same wells.
# as §7
# RXR-alpha HEK 293T cells were dispensed at 2,000 cells/6 uL of assay medium containing 2% charcoal-stripped FBS using a Multidrop Combi (ThermoFisher Scientific, Waltham, MA) dispenser. The assay was performed in black wall/clear-bottom 1536-well plates (Greiner Bio-One North America Inc. Monroe, NC). Tetraoctyl ammonium bromide was used as a positive control in the cytotoxicity screen. After the assay plates were incubated at 37 C and 5% CO2 for 5 hr, 23 nL of compounds dissolved in DMSO, positive control or DMSO only were transferred to the assay plate by a Pintool station (Kalypsys, San Diego, CA). The assay plates were incubated at 37 C and 5% CO2 for 16 hr. One uL of LiveBLAzer B/G FRET substrate (Life Technologies) was added using a Flying Reagent Dispenser (FRD) (Aurora Discovery, San Diego, CA) and the plates were incubated at room temperature for 2 hr. Fluorescence intensity (405 nm excitation, 460/530 nm emission) was measured using an Envision plate reader (PerkinElmer, Shelton, CT). For cytotoxicity, 4 uL/well of CellTiter-Glo reagent was added into the assay plates using an FRD. After 30 min incubation at room temperature, the luminescence intensity was measured using a ViewLux plate reader (PerkinElmer).
row,Structure (SMILES),"activity change, negative = cytotoxicity"
1,CCOP(=S)(Cl)OCC,inactive: 1.59%
2,O=[N+]([O-])c1ccccc1[N+](=O)[O-],inactive: -5.11% and inactive: -12.6%
3,CCC(=O)N(c1ccccc1)C1CCNCC1,inactive: -12.4% [at 35.3 µM]
4,CCOC(=O)N1CCC(=O)CC1,inactive: 3.24% [at 35.3 µM]
5,ClCCOP(OCCCl)OCCCl,inactive: -2.76% and inactive: 8.49%
6,CCOP(=O)(Cl)Cl,inactive: 17.3% and inactive: 4.98%
7,ClCCNCCCl,inactive: -0.294%
8,CC(C)OP(OC(C)C)OC(C)C,inactive: -7.47%

# Tested on: not listed separately
# Experiment: qHTS assay to identify small molecule antagonists of the retinoid acid receptor (RAR) signaling pathway - cell viability counter screen (AID 1159551); further: on the % scale 0 is the no-effect control and ±100 the full control effect; nearly all actives have a fitted effect of over 35% in size
# Details: C3RL4 cells viability, ATP luminescence (CellTiter-Glo), 6 h; at 92.4 µM (top of the series) unless noted
# Text: U.S. Tox21 Program National Center for Advancing Translational Sciences [NCATS] NIH Chemical Genomics Center [NCGC] U.S. Environmental Protection Agency [EPA] National Institutes of Environmental Health Sciences [NIEHS] National Toxicology Program [NTP] U.S. Food and Drug Administration [FDA] Tox21 Assay Overview: All-trans Retinoic acid (atRA) is the potent natural metabolite of retinol and plays an important role in normal embryonic development and maintenance of cellular phenotype in adult animals. atRA is the activating ligand for the retinoic acid receptors (RARs) which form heterodimers with retinoid X receptors (RXRs) on the retinoic acid response element (RARE). Through activation of the RAR/RXRs nuclear receptors, atRA regulates the transcription of a large number of protein-coding genes and regulatory RNAs. Intracellular levels of atRA are controlled by the retinol signaling pathway (RSP) that regulates the biosynthesis and catabolism of atRA to maintain physiological levels. Chemicals that interfere with the RSP can cause abnormal intracellular levels of atRA and therefore are potential developmental toxicants. To assess compounds for the potential adverse effect on embryonic development through interfering with retinol signaling, a cell-based RARE luciferase reporter gene assay was used. C3RL4 cell line (OARSA/CFSAN/FDA, Laurel, MD) was used to screen Tox21 10K compound library for identifying inhibitors of the RSP. Also cytotoxicity was assessed by determining the viability of cells based on the quantitation of ATP.
# Tox21 Assay Protocol Summary: C3RL4 cells were seeded at 1,000/well in 4 uL of assay medium into white solid 1,536-well tissue culture plates (Greiner Bio-One North America Inc. Monroe, NC) using a Multidrop Combi (Thermo Scientific, Waltham, MA) dispenser. After incubation at 37 C and 5% CO2 for an overnight, 23 nL of compounds dissolved in DMSO, positive control or DMSO only were transferred by a Pintool station (Kalypsys, San Diego, CA). One ul of 1 uM (final concentration) of Retinol was added right after the compound addition by using a Flying Reagent Dispenser (FRD) (Aurora Discovery, San Diego, CA). After 6 hr incubation at 37 C and 5% CO2, 5 uL of CellTiter-Glo reagent (Promega Corporation, Madison, WI) was added to each assay plate using an FRD. Luminescence was quantified on a ViewLux plate reader (PerkinElmer, Waltham, MA) after 30 min incubation at room temperature.
row,Structure (SMILES),"activity change, negative = cytotoxicity"
1,CCOP(=S)(Cl)OCC,inactive: -2.88%
2,O=[N+]([O-])c1ccccc1[N+](=O)[O-],inactive: -1.12% and inactive: -1.13%
3,CCC(=O)N(c1ccccc1)C1CCNCC1,inactive: -2.18% [at 42.5 µM]
4,CCOC(=O)N1CCC(=O)CC1,inactive: 1.98% [at 42.5 µM]
5,ClCCOP(OCCCl)OCCCl,inactive: -1.08% and inactive: 0.381%
6,CCOP(=O)(Cl)Cl,inactive: 4.22% and inactive: 2.89%
7,ClCCNCCCl,inactive: -0.376%
8,CC(C)OP(OC(C)C)OC(C)C,inactive: -0.346%

# Tested on: not listed separately
# Experiment: qHTS assay to identify small molecule antagonists of the retinoic acid receptor (RAR) signaling pathway (AID 1159552; further: on the % scale 0 is the no-effect control and ±100 the full control effect; nearly all actives have a fitted effect of over 50% in size)
# Details: C3RL4 RARE luciferase reporter, retinol-stimulated, 6 h; at 92.4 µM (top of the series) unless noted
# In short: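 RARE-luc C3RL4 cells; cpds + 1 uM (final) retinol, 6 hr, 37 C/5% CO2; luciferase reagent, 30 min RT, luminescence readout. Inhibitors of retinol-driven signal scored.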
row,Structure (SMILES),"activity, negative = inhibition"
1,CCC(=O)N(c1ccccc1)C1CCNCC1,inactive: -7.03% [at 42.5 µM]
2,CCOC(=O)N1CCC(=O)CC1,inactive: 4.56% [at 42.5 µM]
3,ClCCOP(OCCCl)OCCCl,inactive: 21.6% and inactive: 12.5%
4,CCOP(=O)(Cl)Cl,inactive: -6.93% and inactive: 1.06%
5,ClCCNCCCl,inactive: -6.02%
6,CC(C)OP(OC(C)C)OC(C)C,inactive: -3.55%
